# Assay results from patent publication US20080280983A1, “METHODS OF TREATING RETT SYNDROME” (CeNeRx BioPharma, priority 2007, published 2008).
# Experiments:
# CRF-1 receptor [1] = biological target: T1, CRF-1 receptor (Rattus norvegicus, UniProt P35353); settings: rodents; cited from earlier work
# T1 construct: from tissue; host or cells: living rat, brain (in vivo)
# T1 sequence (P35353 24-415): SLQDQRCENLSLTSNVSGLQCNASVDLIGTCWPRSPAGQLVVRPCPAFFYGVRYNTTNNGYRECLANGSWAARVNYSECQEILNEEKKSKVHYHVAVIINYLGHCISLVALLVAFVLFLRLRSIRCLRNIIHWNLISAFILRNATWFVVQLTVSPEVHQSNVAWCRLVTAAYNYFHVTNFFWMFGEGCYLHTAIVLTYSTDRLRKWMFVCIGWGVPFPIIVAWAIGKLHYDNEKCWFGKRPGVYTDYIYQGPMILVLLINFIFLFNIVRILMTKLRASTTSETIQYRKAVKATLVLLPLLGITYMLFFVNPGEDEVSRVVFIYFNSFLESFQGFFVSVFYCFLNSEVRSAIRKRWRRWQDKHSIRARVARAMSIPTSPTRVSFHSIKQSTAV
# CRF-1 receptor [2] = biological target: T1, CRF-1 receptor; assay: Reversal of effects of CRH administered directly into the brain; format: in vivo; settings: rats, sub-chronic treatment
# Source text: Therefore, its mechanism of action is likely not related to GABA. In attempts to elucidate the mechanism of action it was discovered that pivagabine affects the corticotrophin-releasing hormone (CRH) content of specific brain regions (hypothalamus and cerebral cortex) particularly during stress conditions (application of foot shock in rodents).
# As mentioned above, stress is known to be associated with release of CRH from the hypothalamus and activation of the HPA axis. This is paralleled by changes in the CRH content of different brain regions and alterations in the expression of messenger RNA (mRNA) for CRH. […] Pivagabine alone reduced the CRH concentration in the hypothalamus by 52%, but had no effect in the cerebral cortex.
compound,measurement,setting,value
"CC(C)(C)C(=O)NCCCC(=O)O [pivagabine, 4-[(2,2-dimethyl-1-oxopropyl)amino]butanoic acid]",reversal of the effects of CRH administered directly into the brain,CRF-1 receptor [1],does not reverse the effects of CRH
same,antagonism of intra-cerebroventricular CRH,CRF-1 receptor [2],not antagonized
